# Assay results: PubChem BioAssay AID1885 (Broad Institute, 2009)
# Only a part is listed here, and it is no random draw. Some structures show a salt or complex split into parts, the way the source records it. Activity calls are given as the source filed them.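 How the source made its calls: active means mean inhibition across valid replicates above about 55% (limit read from the data); inconclusive means mean below that limit but half or more replicates reach it; inactive means mean below it, under half of replicates reach it.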
# Assay: inhibitors of intracellular T. cruzi growth, primary screen, luminescence, NIH3T3 host cells (AID 1885);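 further: signal also drops with host cell toxicity which is not excluded here; 0% = plate median of DMSO wells and 100% = zero luminescence signal; higher percent means less beta-gal luminescence so fewer parasites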
# Conditions: T. cruzi beta-gal in NIH3T3, luminescence, 90 h; hits give high values; concentration not given here
# In short: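 assay system = mouse NIH/3T3 fibroblasts infected with β-gal-expressing T. cruzi Tulahuen C4 | input = 5,000 NIH/3T3 host cells per well | buffer or medium = DMEM plus 2% FBS | timing = 3 h host attachment, then at least 90 h co-culture | measured by = GalScreen luminescence, 60 min | evaluation = luminescence reflecting intracellular parasite burden, expressed as percent inhibition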
row,SMILES,inhibition
1,COc1ccc(OP(C)(=O)Nc2ccc(SC(F)(F)F)cc2)cc1 (stereo not given),inactive: 1.61%
2,CCOC(=O)c1ccc(NP(C)(=O)Oc2ccc(F)cc2)cc1 (stereo not given),inactive: -38.8%
3,c1ccc(-c2nn[nH]n2)c(-c2nn[nH]n2)c1,inactive: -7.2%
4,Cc1ccc(NP(=O)(Oc2cccc(C)c2)Oc2cccc(C)c2)nc1,inactive: 5.6%
5,CCOC(=O)NC(Sc1ccccc1)C(Cl)(Cl)Cl (stereo not given),inactive: -13.3%
6,CCNC(=S)/N=C(\N)N[N+](=O)[O-],inactive: -4.22%
7,O=C(NC1CCS(=O)(=O)C1)NP(=S)(Oc1ccccc1)Oc1ccccc1 (stereo not given),inactive: 10.2%
8,Cc1ccccc1OP(=O)(Nc1ccccn1)Oc1ccccc1C,inactive: 1.03%
9,CCCCCOc1ccc(NP(C)(=O)Oc2ccc(Cl)cc2Cl)cc1 (stereo not given),inactive: 16.5%
10,O=[N+]([O-])c1cc([N+](=O)[O-])c(OC2CCCCC2O)c([N+](=O)[O-])c1 (stereo not given),inactive: -14.1%
11,CP(=O)(Nc1ccccc1)Oc1ccc(F)cc1 (stereo not given),inactive: 6.35%
12,O=C(OC1CN2CCC1CC2)c1ccccc1 (stereo not given),inactive: -24%
13,CCN(CC)CCCOC(=O)C(O)(c1ccccc1)C1CCCCC1 (stereo not given),inactive: -7.14%
14,CCC(=O)N1C2C3N(C(=O)CC)C1C1N(C(=O)CC)C(C(N1C(=O)CC)N3C(=O)CC)N2C(=O)CC,inactive: -17.1%
15,COC(=O)c1cc2c(s1)N=C(c1ccccc1)N(C)P2(=O)N1CCOCC1 (stereo not given),inactive: -15.5%
16,CC(=O)NC(SC(=S)N(CC(C)C)CC(C)C)C(Cl)(Cl)Cl (stereo not given),inactive: 14.6%
17,CC(C)(C)C(=O)NC(Sc1ccccc1)C(Cl)(Cl)Cl (stereo not given),inactive: -5.34%
18,CC(C)c1ccc(OP(C)(=O)Nc2ccc(SC(F)(F)F)cc2)cc1 (stereo not given),inactive: 47.7%
19,CP(=O)(Nc1ccccc1F)Oc1ccccc1 (stereo not given),inactive: 6.62%
20,O=P1(Nc2nc3ccc(Cl)cc3s2)COc2ccccc2O1 (stereo not given),inactive: 6.03%

row,SMILES,inhibition
1,CCOc1ccc(C2=NCC(CBr)S2)cc1 (stereo not given),inactive: -2.15%
2,CC(=O)Nc1ccc([As](=O)(O)O)c(O)c1,inactive: -7.07%
3,COc1ccc2c(c1O)-c1c(O)c(OC)cc3c1[C@H](C2)[N+](C)(C)CC3.O=[N+]([O-])c1cc([N+](=O)[O-])c([O-])c([N+](=O)[O-])c1[O-],inactive: -16.7%
4,CC(=O)Nc1ccc(Oc2c([N+](=O)[O-])cc([N+](=O)[O-])cc2[N+](=O)[O-])cc1,inactive: 4.95%
5,O=C(OCCN1CCN(CCOCc2ccccc2)CC1)C(O)(c1ccccc1)c1ccccc1,inactive: 16.5%
6,C[C@H]1OP(=O)(Oc2ccccc2)C[C@@H]2O[C@@H]21 (stereo not given in full),inactive: -27.5%
7,C[C@@H]1C=CCP(=O)(Oc2ccccc2)O1 (stereo not given in full),inactive: -17.4%
8,CC(=O)c1ccc(N2CC2c2ccncc2)cc1 (stereo not given),inactive: -8.12%
9,O=C(OC1CN2CCC1CC2)c1ccc([N+](=O)[O-])cc1 (stereo not given),inactive: 19.8%
10,c1nnnn1CCn1cnnn1,inactive: 7.92%
11,CCOP(C)(=S)SCC(=O)NC(C)(CC)C(=O)O (stereo not given),inactive: -14.3%
12,CC(C)C(=O)NC(Sc1ccccc1)C(Cl)(Cl)Cl (stereo not given),inactive: -20.9%
13,O=P(Nc1nccs1)(c1ccccc1)c1ccccc1,inactive: -20.4%
14,CP(=O)(Nc1ccc(SC(F)(F)F)cc1)Oc1ccc(F)cc1 (stereo not given),inactive: -0.866%
15,Cc1ccccc1NP(C)(=O)Nc1ccccc1C,inactive: -7.58%
16,CP(=O)(Nc1ccc2c(c1)OCCO2)Oc1ccccc1 (stereo not given),inactive: -8.24%
17,COc1ccc(NP(C)(=O)Oc2ccccc2OC)cc1 (stereo not given),inactive: -2.42%
18,CN(C)CCOC(=O)C(O)(c1ccccc1)C1CCCCC1 (stereo not given),inactive: -1.76%
19,O=P(Nc1nc2ccccc2s1)(c1ccccc1)c1ccccc1,inactive: 0.341%
20,C[C@H]1OP(=O)(Oc2ccccc2)[C@H](O)[C@H](O)[C@H]1N=[N+]=[N-] (stereo not given in full),inactive: -19.7%

row,SMILES,inhibition
1,O=P(Nc1ccccn1)(c1ccc(Br)cc1)c1ccc(Br)cc1,inactive: 35.7%
2,CN(C)C1(CNC(=O)c2ccc(Cl)c(S(N)(=O)=O)c2)CCCCC1,inactive: 12.5%
3,COc1ccc(OP(C)(=O)Nc2cccc(Br)c2)cc1 (stereo not given),inactive: -15.8%
4,O=C(OC1CN2CCC1CC2)c1cccc(Cl)c1 (stereo not given),inactive: 1.88%
5,C(Cc1nn[nH]n1)Cc1nn[nH]n1,inactive: -13.2%
6,Nc1ccc([As](=O)(O)c2ccc([N+](=O)[O-])cc2)cc1,inactive: -16.1%
7,O=[As](O)(c1ccccc1)c1ccc(O)cc1,inactive: 2.26%
8,Cc1cc(-c2cccc3ccccc23)c(C)cn1.O=[N+]([O-])c1cc([N+](=O)[O-])c(O)c([N+](=O)[O-])c1,inactive: -21%
9,O=[N+]([O-])c1cc([N+](=O)[O-])c(NCC2CCS(=O)(=O)C2)c([N+](=O)[O-])c1 (stereo not given),active: 61%
10,O=[N+]([O-])c1ccc(O)c(/C=N/Nc2ccc([N+](=O)[O-])cc2[N+](=O)[O-])c1,inactive: -10.3%
11,CC(=O)NC(SC(=S)N(C)C)C(Cl)(Cl)Cl (stereo not given),inactive: 11.8%
12,O=[N+]([O-])c1ccc(OP2(=O)COCCO2)cc1 (stereo not given),inactive: -7.4%
13,O=[N+]([O-])c1ncn(CCn2cnc([N+](=O)[O-])n2)n1,inactive: 7.33%
14,CP(=O)(OC12CC3CC(CC(C3)C1)C2)OC12CC3CC(CC(C3)C1)C2,inactive: 36%
15,CCOC(=O)c1ccc(NP(C)(=O)Oc2ccc(Cl)cc2)cc1 (stereo not given),inactive: -22%
16,O=C(Nc1cc([As](=O)(O)O)ccc1O)c1ccccc1,inactive: -7.28%
17,Nc1ccc2c(ccc3cccnc32)n1.O=[N+]([O-])c1cc([N+](=O)[O-])c(O)c([N+](=O)[O-])c1,inactive: 4.12%
18,O=C(O)CNc1ccc([As](=O)(O)O)cc1,inactive: -7.73%
19,O=[N+]([O-])c1cccc(NC2=NCC(CBr)S2)c1 (stereo not given),inactive: 0.217%
20,O=[N+]([O-])c1ncn(CCn2ncnc2[N+](=O)[O-])n1,inactive: 5.1%
